# Permeability data for macrocyclic peptides

Source: CycPeptMPDB (Li et al. 2023), which took these values from Townsend et al. 2020, doi:10.26434/chemrxiv.13335941.v1.

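The data file gives no further conditions (lipid, pH, time, direction or concentration), and values from different papers need not be comparable. The list need not hold all peptides of the study. Entries at the database's floor value (log10 P of -10) are not listed.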

PAMPA measures passive passage through an artificial lipid membrane.
P is given in units of 10^-6 cm/s (from log10 values with two decimals); larger means faster passage.

| structure (SMILES) | PAMPA (10^-6 cm/s) |
|---|---|
| CC(C)C[C@@H]1C(=O)N[C@H](CC(C)C)C(=O)N2CCC[C@@H]2C(=O)N[C@H](CC(C)C)C(=O)N[C@@H](Cc2ccccc2)C(=O)N2CCC[C@@H]2C(=O)N[C@@H](Cc2ccccc2)CC(=O)N1C | 2.1 |
| CCCN1CC(=O)N[C@H](CC(C)C)C(=O)N[C@@H](CC(C)C)C(=O)N2CCC[C@@H]2C(=O)N[C@@H](CC(C)C)C(=O)N[C@@H](Cc2ccccc2)C(=O)N2CCC[C@@H]2C1=O | 0.78 |
| CC(C)C[C@@H]1NC(=O)[C@H](CC(C)C)N(C)C(=O)[C@@H](C)N(C)C(=O)[C@@H]2CCCN2C(=O)[C@H](Cc2ccccc2)NC(=O)CN(Cc2ccccc2)C(=O)[C@@H]2CCCN2C1=O | 2.2 |
| CC(C)C[C@@H]1NC(=O)[C@H](C)NC(=O)[C@H]2CCCN2C(=O)[C@H](Cc2ccccc2)NC(=O)[C@@H](CC(C)C)N(C)C(=O)[C@@H]2CCCN2C(=O)CN(Cc2ccccc2)C1=O | 0.49 |
| CC(C)C[C@@H]1NC(=O)[C@H](C)N(C)C(=O)[C@H](Cc2ccccc2)NC(=O)[C@@H](CC(C)C)N(C)C(=O)[C@H]2CCCN2C(=O)CN(Cc2ccccc2)C1=O | 2.1 |
| CC(C)C[C@H]1NC(=O)[C@H](CC(C)C)N(C)C(=O)[C@@H](C)NC(=O)[C@H](Cc2ccccc2)NC(=O)[C@H](CC(C)C)N(C)C(=O)[C@@H]2CCCN2C1=O | 4.3 |
| CC(C)C[C@@H]1NC(=O)[C@@H]2CCCN2C(=O)[C@@H](CC(C)C)N(C)C(=O)[C@H](CC(C)C)NC(=O)[C@H](C)NC(=O)[C@H](Cc2ccccc2)NC1=O | 2 |
| CC(C)C[C@@H]1NC(=O)[C@@H](C)NC(=O)[C@H](Cc2ccccc2)NC(=O)[C@@H](CC(C)C)NC(=O)[C@H]2CCCN2C(=O)CN(Cc2ccccc2)C1=O | 1 |
| CC(C)C[C@@H]1NC(=O)[C@@H](C)N(C)C(=O)[C@H]2CCCN2C(=O)[C@H](Cc2ccccc2)NC(=O)CN(Cc2ccccc2)C(=O)[C@@H]2CCCN2C(=O)[C@@H](CC(C)C)NC1=O | 2.1 |
| CC(C)C[C@H]1NC(=O)C[C@H](Cc2ccccc2)NC(=O)[C@H](Cc2ccccc2)NC(=O)[C@H](CC(C)C)N(C)C(=O)[C@@H]2CCCN2C(=O)C[C@H](Cc2ccccc2)NC1=O | 2.1 |
| CC(C)C[C@@H]1C(=O)N2CCC[C@H]2C(=O)N[C@H](CC(C)C)C(=O)N[C@@H](Cc2ccccc2)C(=O)N2CCC[C@H]2C(=O)N(C)[C@@H](C)C(=O)N(Cc2ccccc2)CC(=O)N1C | 3 |
| CC(C)C[C@@H]1C(=O)N(Cc2ccccc2)CC(=O)N2CCC[C@H]2C(=O)N[C@H](CC(C)C)C(=O)N[C@@H](Cc2ccccc2)C(=O)N2CCC[C@H]2C(=O)N[C@@H](C)C(=O)N1C | 1.3 |
| CC(C)C[C@@H]1NC(=O)[C@H]2CCCN2C(=O)[C@@H](CC(C)C)NC(=O)[C@@H](CC(C)C)NC(=O)[C@H](C)N(C)C(=O)[C@H](Cc2ccccc2)NC1=O | 0.78 |
| CC(C)C[C@H]1NC(=O)[C@H](CC(C)C)N(C)C(=O)[C@H](C)NC(=O)[C@H]2CCCN2C(=O)[C@H](Cc2ccccc2)NC(=O)[C@H](CC(C)C)N(C)C(=O)[C@@H]2CCCN2C1=O | 6 |
| CC(C)C[C@H]1NC(=O)[C@H](C)N(C)C(=O)[C@H]2CCCN2C(=O)[C@H](Cc2ccccc2)NC(=O)[C@H](CC(C)C)N(C)C(=O)[C@@H]2CCCN2C(=O)[C@H](CC(C)C)N(C)C1=O | 6.5 |
| CC(C)C[C@@H]1C(=O)N2CCC[C@H]2C(=O)N(Cc2ccccc2)CC(=O)N[C@@H](Cc2ccccc2)C(=O)N2CCC[C@@H]2C(=O)N(C)[C@H](C)C(=O)N[C@H](CC(C)C)C(=O)N1C | 6.6 |
| CC(C)C[C@@H]1NC(=O)[C@@H](C)N(C)C(=O)[C@H](Cc2ccccc2)NC(=O)CN(Cc2ccccc2)C(=O)[C@H]2CCCN2C(=O)[C@H](CC(C)C)N(C)C1=O | 13 |
| CC(C)C[C@@H]1C(=O)N[C@@H](Cc2ccccc2)C(=O)N2CCC[C@H]2C(=O)N(C)[C@@H](C)C(=O)N[C@H](CC(C)C)C(=O)N[C@H](CC(C)C)C(=O)N2CCC[C@@H]2C(=O)N1C | 1.1 |
| CC(C)C[C@@H]1NC(=O)[C@H](C)N(C)C(=O)[C@H]2CCCN2C(=O)[C@H](Cc2ccccc2)NC(=O)CN(Cc2ccccc2)C(=O)[C@@H]2CCCN2C(=O)C[C@H](Cc2ccccc2)NC1=O | 1.1 |
| CC(C)C[C@H]1NC(=O)[C@@H](C)N(C)C(=O)[C@H]2CCCN2C(=O)[C@H](Cc2ccccc2)NC(=O)[C@@H](CC(C)C)NC(=O)[C@@H]2CCCN2C(=O)C[C@H](Cc2ccccc2)NC1=O | 0.28 |

A selection of 3 entries from above:

| structure (SMILES) | PAMPA (10^-6 cm/s) |
|---|---|
| CC(C)C[C@H]1NC(=O)[C@H](CC(C)C)N(C)C(=O)[C@H](C)NC(=O)[C@H]2CCCN2C(=O)[C@H](Cc2ccccc2)NC(=O)[C@H](CC(C)C)N(C)C(=O)[C@@H]2CCCN2C1=O | 6 |
| CC(C)C[C@@H]1C(=O)N[C@@H](Cc2ccccc2)C(=O)N2CCC[C@H]2C(=O)N(C)[C@@H](C)C(=O)N[C@H](CC(C)C)C(=O)N[C@H](CC(C)C)C(=O)N2CCC[C@@H]2C(=O)N1C | 1.1 |
| CC(C)C[C@@H]1NC(=O)[C@@H](C)N(C)C(=O)[C@H](Cc2ccccc2)NC(=O)CN(Cc2ccccc2)C(=O)[C@H]2CCCN2C(=O)[C@H](CC(C)C)N(C)C1=O | 13 |